# Assay results reported in US10655163B2, “Methods, kits, and systems for multiplexed detection of target molecules and uses thereof” (THE GENERAL HOSPITAL CORPORATION, priority 2013, dated 2020).
# Experiments:
# A431 single cells = assay type: cell-based, human
# human cancer cell lines = assay: Control study: cell lines treated with cetuximab, ABCD protein profiling; assay type: cell-based; details: FIG. 15B
# Text: Having established feasibility of inter- and intrapatient analyses in clinical samples, it was next sought to explore the feasibility of monitoring cancer treatment over time. To this end, it was first sought to determine if known pathway responses to different drug treatments could be discriminated. […] Notable examples include pS6RP for targeted treatments, and pH2A.X, pATM/ATR (phospho-ataxia telangiectasia mutated/ATM- and Rad3-related) substrate, and cleaved PARP for DNA-damaging agents. Unexpected results, such as epigenetic histone modifications after treatment with a phosphatidylinositol 3-kinase inhibitor (PI3Ki) was also found (FIG. 15E). For additional in vitro validation of treatment, HT1080 fibrosarcoma cell lines were treated with four different doses of taxol.
# Drug treatments of cell lines. To test the effect of drug treatment on protein expression levels, the cell lines were treated with a number of different chemotherapeutic or molecularly targeted drugs. A431 cell lines were dosed with gefitinib (Selleck Chemicals) in medium with 1% dimethyl sulfoxide (DMSO) for 12 hours at a concentration of 10 μM. […]
Compound,"average expression value, Treated: CD56 (A431 single cells)","average expression value, Treated: Dimethyl-histone H3 (Lys36) (A431 single cells)","average expression value, Treated: FGFR4 (A431 single cells)","average expression value, Treated: Ku80 (A431 single cells)","average expression value, Treated: Phospho-S6RP (A431 single cells)","average expression value, Treated: Phospho-histone H3 (A431 single cells)",drug inhibition (protein markers) (human cancer cell lines)
COc1cc2ncnc(Nc3ccc(F)c(Cl)c3)c2cc1OCCCN1CCOCC1 [gefitinib],334.4,86.9,114.1,120.6,58.4,982.0,–
cetuximab,–,–,–,–,–,–,expected drug inhibition
